Source: patent US10807956B2, “Histone demethylase inhibitors” (CELGENE QUANTICEL RESEARCH, INC., priority 2012, dated 2020)

Tested on: KYSE-150 esophageal carcinoma cell line
Assay: Cell proliferation assay via BrdU incorporation (ELISA)
Format: cell-based, human
Details: KYSE-150 cells, BrdU incorporation after 168 hr compound incubation; read-out: Cellular IC50

**Q.** With “3-{[(6-chloro-1-hydroxy-1,2,3,4-tetrahydronaphthalen-1- yl)methyl]amino}pyridine-4-carboxylic acid [Example 67]” as the substance, how does the IC50 read?
**A.** The IC50 was 1 to 10 µM.
